Drawing on published antibiotic growth screens (doi:10.1038/s41589-023-01349-8), this text covers relative growth for 23 molecules.

This is one part of the list.

The test system of the test is A. baumannii ATCC 17978. In words: relative growth (fraction of control); higher = less inhibition. The conditions noted are these: 50 µM.
The molecule `CC(C)CC(=O)N[C@H](C(=O)N[C@H](C(=O)N[C@@H](CC(C)C)[C@@H](O)CC(=O)N[C@@H](C)C(=O)N[C@@H](CC(C)C)[C@@H](O)CC(=O)O)C(C)C)C(C)C` displayed a relative growth of 0.916.
As for `C=c1nnsc1=C1NC(c2cc(C)on2)=NO1`, the relative growth came out at 0.918.
Regarding `COCC(=O)Nc1ccc2c(c1)C(=O)N(C)C[C@@H](OC)[C@@H](C)CN(Cc1cccc(F)c1)[C@@H](C)CO2`, the relative growth was 0.85.
For the molecule `O=C(C[C@H]1CC[C@@H](NS(=O)(=O)c2ccc(F)cc2)[C@H](CO)O1)NCc1ccc(Cl)c(Cl)c1`, the relative growth worked out at 1.01.
Molecule `CCN(CC)CCNC(=O)COc1ccc(OC)cc1.Cl` displayed a relative growth of 0.942.
Turning to `COC(CNC1=Nc2ncccc2OC1)OC`, the relative growth worked out at 0.946.
As to `CNC(=O)CN(C#N)c1nc(C)cc(C)n1`, the relative growth was found to be 1.05.
`COc1ccc(NC(=O)N[C@@H]2CC[C@@H](CCNC(=O)CN3CCOCC3)O[C@H]2CO)cc1`: the relative growth turned out to be 1.01.
With `COc1ccccc1S(=O)(=O)N[C@@H]1CC[C@@H](CCNC(=O)C2CC2)O[C@H]1CO`, the relative growth is 1.06.
`COc1ccccc1CNC(=O)C[C@H]1CC[C@H]2[C@@H](COC[C@H](O)CN2C(=O)Nc2ccc(F)cc2)O1` showed a relative growth of 1.02.
Molecule `NC(=O)[C@H]1[C@H](C(=O)O)[C@@H]2C=C[C@H]1C2` registered a relative growth of 0.895.
In turn, `O=C(N[C@@H]1CC[C@H](CC(=O)N2CCOCC2)O[C@H]1CO)c1ccc2c(c1)OCO2` had a relative growth of 1.12.
In turn, `COC(=O)c1ccc(O)cc1` gave a relative growth of 1.15.
Consider `OCCC[C@@H](O)c1ccc(OCCO)cc1`, for which the relative growth was 1.03.
The same measure for `C[C@H](CO)N1C[C@H](C)[C@H](CN(C)C(=O)C2CCOCC2)Oc2cc(-c3ccc(C(=O)N(C)C)cc3)ccc2S1(=O)=O`: 1.04; for `CO[C@H]1CN(C)C(=O)c2ccc(NC(=O)c3ccccc3)cc2OC[C@H](C)N(C(=O)CN(C)C)C[C@H]1C`: 1.08; for `COc1cccc(NC(=O)N[C@H]2CC[C@@H](CC(=O)N3CCN(C)CC3)O[C@@H]2CO)c1`: 0.938.
The same measure for `COc1ccc(C#Cc2ccc3c(c2)O[C@@H](CN(C)C(C)=O)[C@@H](C)CN([C@H](C)CO)S3(=O)=O)cc1`: 1.08; for `CC(=O)O[C@@H]1CC2C(C)(C)C(=O)C3OC3[C@]2(C)C2CC[C@@]3(C)[C@H](c4ccoc4)OC(=O)C4OC43[C@@]21C` (stereo partly drawn): 1.34; for `Cc1ccc(S(=O)(=O)NCCOc2nc(N(C)C)nc(N3CCOCC3)n2)cc1`: 1.03.
Molecule `C=CCN1C(=O)[C@]2(O[C@H](CCO)[C@@H]([Si](C)(C)c3ccc(OC)cc3)[C@@H]2C)c2cc(N(C=O)c3ccccc3)ccc21` returned a relative growth of 1.07.
The same measure for `CC(C)NC(=O)N[C@H]1C=C[C@H](CC(=O)NCCCN(C)C)O[C@@H]1CO`: 1.04; for `CNC(=O)C[C@H]1CC[C@@H]2[C@H](COC[C@H](O)CN2C(=O)c2ccc3c(c2)OCO3)O1`: 0.97.
